Results published in BindingDB's records for 37276138, “The Zinc-Binding Group Effect: Lessons from Non-Hydroxamic Acid Vorinostat Analogs” (2023).

Protein sequences, listed by entry. Tags and fused reporters are not part of them. Lines headed by an entry give the natural chain unless they say otherwise; changes in a name come on top.
UniProt Q9BY41, whole entry, looked up: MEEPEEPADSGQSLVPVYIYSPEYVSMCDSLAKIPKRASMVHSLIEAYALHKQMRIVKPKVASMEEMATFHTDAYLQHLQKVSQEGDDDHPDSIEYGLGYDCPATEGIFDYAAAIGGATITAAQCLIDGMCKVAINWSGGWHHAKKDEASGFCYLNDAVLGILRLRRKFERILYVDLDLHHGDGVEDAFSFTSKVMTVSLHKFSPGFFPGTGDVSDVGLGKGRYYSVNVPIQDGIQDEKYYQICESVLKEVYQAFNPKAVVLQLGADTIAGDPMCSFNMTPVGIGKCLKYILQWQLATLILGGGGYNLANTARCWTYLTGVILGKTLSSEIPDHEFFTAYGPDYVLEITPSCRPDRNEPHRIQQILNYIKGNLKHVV

Columns and labels:
[1] = biological target: Histone deacetylase (UniProt O15379+P56524+Q13547+Q8WUI4+Q92769+Q969S8+Q96DB2+Q9BY41+Q9UBN7+Q9UKV0+Q9UQL6)
[2] = biological target: Histone deacetylase 8 (Homo sapiens, UniProt Q9BY41); experiment: ASSAY_NAME: ChEMBL_2346022 DESCRIPTION: Inhibition of human recombinant HDAC8

SMILES | IC50 [1] [mM] | IC50 [2] [µM]
CP(=O)(O)OCCCCCC(=O)Nc1ccccc1 | 6.1 | 390
CP(=O)(O)NCCCCCC(=O)Nc1ccccc1 | 2 | 280
